Apparent affinities of Ab-14 variants for a coronavirus HR2 peptide

Target peptide (SARS-CoV-2 spike, HR2 region): PDVDLGDISGINAS

Each scFv is VH, a 15-residue (Gly4Ser)3 linker, VL, as in the parent Ab-14, and differs from it in the CDRs of the heavy chain only.
VH: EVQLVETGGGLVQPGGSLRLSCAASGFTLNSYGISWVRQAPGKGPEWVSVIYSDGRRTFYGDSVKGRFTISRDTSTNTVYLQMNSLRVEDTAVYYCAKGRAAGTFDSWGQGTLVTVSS
VL: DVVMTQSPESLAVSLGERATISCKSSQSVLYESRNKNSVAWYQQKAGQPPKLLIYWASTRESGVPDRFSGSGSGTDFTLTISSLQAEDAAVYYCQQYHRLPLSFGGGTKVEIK

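The starting antibody came from a phage panning campaign against this peptide. This is the validation round: designs drawn from the data on random variants, tested in the same kind of assay. Several design methods are mixed in this list. AlphaSeq pools MATa yeast showing the antibodies with MATalpha yeast showing the peptide. After mating in shaken culture at 30 °C for 16 h, diploids were selected and their barcode pairs sequenced. Scores were corrected for input abundance and mapped to Kd with protein pairs of known affinity run in the same pool. There are six technical replicates.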

The parent's heavy chain CDRs are GFTLNSYGIS, VIYSDGRRTFYGDSVK, GRAAGTFDS; each variant's own CDRs replace them letter for letter. Values are apparent Kd, the geometric mean of the replicates that gave a signal; lower means stronger binding. A pair that was not seen in any replicate is written "nd"; this usually means weak binding, but a binder can also be missed. In the paper, a design with two or fewer of six values counts as a poor binder. Of ten entries with the parent sequence, four were seen in most replicates (averages 2.2 nM to 240 nM), three in one and three in none, so single entries are noisy. The range of this assay differs from that of the first round, and the authors advise against merging the two. As a blank, each scFv also met three strains without target: over all heavy chain designs, 1% of these pairings were detected, typically at 120 nM and seldom below 7.0 nM.

With GFNLNEYGIS, VIYADGRRTFYSDSVK, GEAAGTFDI the result was 490 pM (6 of 6 replicates).
With GFDLNEYGIS, VIYADGKRTAYADDVK, GEVAGTFDM the result was 3.9 nM (6 of 6 replicates).
With GFQLNSYGIS, VIYSDGRRTFYADQVK, GEAAGTFDS the result was 3.6 nM (6 of 6 replicates).
With GFDLNEYGIS, VIYADGRRTFYADSVK, GNNAGTFTL the result was 110 nM (5 of 6 replicates).
With GFRLEEYGIS, VIYSDGRRTFYGDSVK, GRAAGTFDQ the result was 2.2 nM (6 of 6 replicates).
With GFTLQDYGIS, VIYSDGRRTFYGDRVK, LRAAGTFDS the result was nd (0 of 6 replicates).
With GFQLNSYGIS, VIYSDGRRTFYGDSVK, GHAAGTFDS the result was nd (0 of 6 replicates).
With GNTLNSYGIS, VIYSDGRRTAYGDSVK, GRVAGTFDS the result was 1.3 nM (6 of 6 replicates).
With GFTLNSYGIS, VIYSDGRRVFYGDSVK, RDPAGTDDS the result was nd (0 of 6 replicates).
With GFTLNSYGIS, VIYSDGRRTFYGDSVK, GRVAKTFDS the result was nd (0 of 6 replicates).
With GFTLNDYGIS, VIYSDGRRTYYSDSVK, GRAAGTFDS the result was 4.3 nM (6 of 6 replicates).
With GFDLNSYGIF, VRYSDGRRTFYGDSVK, GRAAGWFNS the result was nd (0 of 6 replicates).
With GFNLNEYGIS, VIYADGRRTFYSDSVK, GTVGGTFDV the result was 470 pM (6 of 6 replicates).
With GFDLNEYGIS, VIYADGVRTAYADKVK, GNVAGTFDQ the result was 760 pM (6 of 6 replicates).
With YFSLNSYGIS, VIYSDGRRTAYGDSVK, GRTAGTFDS the result was 38 nM (6 of 6 replicates).
With GKSLDEMGIS, VIYADGHRTMYANDVK, GHVGAIFMM the result was nd (0 of 6 replicates).
With GFTLDSYGIS, VIYSDGRRTFYGDSVK, PRAAGTALS the result was nd (0 of 6 replicates).
With GFTLNDYGIS, VSYSDGRRTFYPDSVK, SRAALTFIS the result was nd (0 of 6 replicates).
With GFDLNEYGIS, VIYADGMRTAYADDVK, GNVAGTFDE the result was 290 pM (6 of 6 replicates).
With GFGLNSYGIS, VIYSDGRRTFYGDSVK, WRAAGTFDS the result was nd (0 of 6 replicates).
With GTDLEEYGIS, VIYADGRRAAYAQNVK, GFDGINVTY the result was 2.2 nM (6 of 6 replicates).
With GDSLNEYGIS, VIYADGVRARYADDVK, GENDGLFDQ the result was 26 nM (1 of 6 replicates).
With GFDLNEYGIS, VIYADGKRTSYADSVK, GNNAGTFDV the result was 170 pM (6 of 6 replicates).
With GFDLNEYGIS, VIYADGMRTAYQDSVK, GNNAGTFDV the result was 1.1 nM (6 of 6 replicates).
With GFTGNSYGIS, VIYSDGRRTFYDDSVK, GQLAGTFDS the result was nd (0 of 6 replicates).
With GFTLNDYGIS, VIYSDGRWTFYGDSVK, GRIALTFIS the result was nd (0 of 6 replicates).
With GFSLNSYGIS, VIYSDGRRTFYGDNVK, GQTAGTFDK the result was 3.8 nM (6 of 6 replicates).
With GKTLNSYGIS, VIYSDGRRTFYDDSVK, GQLAGTFDS the result was 2.3 nM (6 of 6 replicates).
With GDTLNSYGIS, VIYEDGRRAAYGDSVK, GRAQGTFDS the result was nd (0 of 6 replicates).
With GFTLNSYGIS, VIYSDGRRTFYGDSVV, GRMAGTFDS the result was nd (0 of 6 replicates).
With GYTLNSYGIS, VIYSDGRRTFYGDSFK, GRAAGTFDS the result was nd (0 of 6 replicates).
With GKDLEEYGIS, VIYADGMRQAYKESVK, GQVAGIGKF the result was 2.4 nM (6 of 6 replicates).
With GFTLNSYGIS, VIYRDGRRTFYGDSVK, DRVAGTFES the result was nd (0 of 6 replicates).
With GEVLDEYGIS, VIYADGQRVQYSDNVK, GLLSGVFDM the result was 710 nM (1 of 6 replicates).
With GFTLNSYGIS, VMYSDGRRTYYDDSVK, GQLARTFDS the result was nd (0 of 6 replicates).

Top 6 of the variants detected in all replicates, tightest first:

CDR-H1	CDR-H2	CDR-H3	Kd (apparent)	detected
GFDLNEYGIS	VIYADGKRTSYADSVK	GNNAGTFDV	170 pM	6/6
GFDLNEYGIS	VIYADGMRTAYADDVK	GNVAGTFDE	290 pM	6/6
GFNLNEYGIS	VIYADGRRTFYSDSVK	GTVGGTFDV	470 pM	6/6
GFNLNEYGIS	VIYADGRRTFYSDSVK	GEAAGTFDI	490 pM	6/6
GFDLNEYGIS	VIYADGVRTAYADKVK	GNVAGTFDQ	760 pM	6/6
GFDLNEYGIS	VIYADGMRTAYQDSVK	GNNAGTFDV	1.1 nM	6/6

Source: Li et al. 2023 (doi:10.1038/s41467-023-39022-2), MIT Lincoln Laboratory and A-Alpha Bio; data file from the FLAb repository.